Consider one compound from PMC8864165, “Functional Effects of ARV-1502 Analogs Against Bacterial Hsp70 and Implications for Antimicrobial Activity” (Frontiers in Chemistry, 2022).

Bounds are passed on as bounds.

The test has as its system S. aureus DSM 6247. Particulars: 25% MHB2, 7.5 × 10^6 cfu/mL, 37°C, 20 h. How it is done: Minimal inhibitory concentrations (MICs) were determined using a liquid broth micro dilution assay in sterile 96-well plates (polystyrene F-bottom, Greiner Bio-One GmbH) and a total volume of 100 μL per well. […] After an incubation period of 4 h (37°C, 200 rpm), cells were diluted to 1.5 × 10^7 cfu/mL, based on a McFarland test, and 50 μL were added to each well (final concentration of 7.5 × 10^6 cfu/mL per well). […] The MIC was defined as the lowest peptide concentration preventing visible bacterial growth.

For the compound `CC(C)C[C@H](NC(=O)[C@H](Cc1ccc(O)cc1)NC(=O)[C@@H]1CCCN1C(=O)[C@H](CCCNC(=N)N)NC(=O)[C@@H]1CCCN1C(=O)[C@H](Cc1ccccc1)NC(=O)[C@H](Cc1ccccc1)NC(=O)[C@@H]1CCCN1C(=O)[C@H](CCCNC(=N)N)NC(=O)C1(N)CCCCC1)C(=O)N[C@@H](CO)C(=O)N[C@@H](CCCNC(=N)N)C(=O)N1CCC[C@H]1C(=O)N[C@@H](CCCNC(=N)N)C(=O)N1CCC[C@H]1C(=O)N1CCC[C@H]1C(=O)N[C@@H](CCCNC(=N)N)C(=O)N1CCC[C@H]1C(=O)N[C@H](C(=O)N[C@@H](CCCNC(=N)N)C(N)=O)C(C)C` [compound 99], the “MIC, S. aureus DSM 6247” value is on record as at most 16 µg/mL.
